scFv variants of Ab-95 (light chain) against a SARS-CoV-2 spike peptide

Source: Engelhart et al. 2022 (doi:10.1038/s41597-022-01779-4), MIT Lincoln Laboratory and A-Alpha Bio; data file from the FLAb repository.

Binding partner: SARS-CoV-2 spike HR2 peptide, sequence PDVDLGDISGINAS.

Parent: Ab-95, a human scFv built as VH, a 15-residue (Gly4Ser)3 linker, VL. Only the CDRs of the light chain vary.
VH: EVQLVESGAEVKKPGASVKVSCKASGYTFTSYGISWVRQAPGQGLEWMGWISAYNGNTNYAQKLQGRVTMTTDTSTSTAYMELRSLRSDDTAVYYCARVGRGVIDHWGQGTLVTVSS
VL: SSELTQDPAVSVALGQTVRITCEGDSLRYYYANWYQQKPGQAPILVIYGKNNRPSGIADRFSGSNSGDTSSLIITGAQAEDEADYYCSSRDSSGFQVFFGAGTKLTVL

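The parent was found by panning a naive human phage display library on the peptide. Library AAYL52 holds single substitutions and randomly drawn double and triple substitutions in the CDRs. The scFvs were displayed on barcoded MATa yeast, the peptide on MATalpha yeast. Mating (16 h, 30 °C) was followed by selection of diploids and sequencing of their barcodes. The ratio of observed to expected reads was calibrated, replicate by replicate, on BCL2-family standards whose Kd was known from biolayer interferometry. The assay was run in three technical replicates.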

Each variant is given by its three light chain CDRs, as the data file delimits them; those of the parent are EGDSLRYYYAN, GKNNRPS, SSRDSSGFQVF. The read-out is the apparent dissociation constant on a log10 scale (nM): the lower, the stronger. A mean of the replicates is given; it leaves out those without a signal. "not detected" marks a missing value. The strain was present, yet no cells mated with the target were sequenced in any replicate, which points to weak or no binding. In this assay the parent's reference entry averaged 2.31; its copy inside this library read 2.25.

| CDR-L1 | CDR-L2 | CDR-L3 | mean, log10 nM | seen in |
|---|---|---|---|---|
| ENDSLRYEYAN | GKNNRPS | SSRDSSFFQVF | 2.91 | 3 of 3 |
| EGDSLRYYYAN | GKNNAPS | SSRESSGFQVL | 4.16 | 3 of 3 |
| TGDSLRAYYAV | GKNNRPS | SSRDSSGFQVF | 4.31 | 2 of 3 |
| EGDSLRYPYAN | GYNNRPS | SSRDSSGFQSF | 2.90 | 3 of 3 |
| EGDSLRYYYFN | IKNNRPS | SSRDPSGFQVF | 4.38 | 3 of 3 |
| ESDSLRYYYYN | GKNNRKS | SSRDSSGFQVF | 4.18 | 3 of 3 |
| EGHSLRYYYAA | GKNNRPS | SSRDSSGFQPF | 4.31 | 3 of 3 |
| EGDSLRYYWAN | EKNNRPS | SSRISSGFQVF | not detected | 0 of 3 |
| GGDSLRYYYAN | CKNNRPS | SSRDSSGVQVF | 4.30 | 1 of 3 |
| EGHSLRYYYAN | GPNNRPS | SSRDSSGFYVF | 3.12 | 3 of 3 |
| EGDSLRYYYAN | GKNNRPS | SSRDWSGFQRS | not detected | 0 of 3 |
| EGDSLRYYYAN | GKANRPS | SSRDSSGAQVW | 2.08 | 3 of 3 |
| EGDSLRYYYAN | GKNYRPS | SSRDVSGFNVF | 2.46 | 3 of 3 |
| ECDSLRYYYAN | IKNWRPS | SSRDSSGFQVF | 4.09 | 1 of 3 |
| EGDSLRYYYAN | GKNDRPS | HSRDSKGFQVF | 3.85 | 1 of 3 |
| EGDSLAYYYAN | GTNQRPS | SSRDSSGFQVF | 2.96 | 3 of 3 |
| AGDSLWYYYAN | GKNNRPF | SSRDSSGFQVF | 3.16 | 3 of 3 |
| EGDSLRYYYAN | GKNNRPS | GSRDSAGFQYF | 4.55 | 2 of 3 |
| EGISLVYYYAN | GKNNRPS | SSRDSSRFQVF | 4.44 | 1 of 3 |
| EGDSPAYYYAN | NKNNRPS | SSRDSSGFQVF | 3.70 | 2 of 3 |
| EGDSLRYYYAN | MKNNRES | SSRDSSGFQVG | 4.53 | 2 of 3 |
| EGDSLRYYYAN | GKCNRPS | SSADSSFFQVF | 4.09 | 1 of 3 |
| EGDSLSYYVAN | GKNNRPS | SSRDSSGFQCF | 3.30 | 3 of 3 |
| EGDSLRYYYAN | GHNNRES | SSRDDSGFQVF | 3.49 | 3 of 3 |
| EGDSLREYYAN | GKNNRGS | SSRDSLGFQVF | 3.35 | 3 of 3 |
| EGDSLRIYYAN | GKNNNPS | SYRDSSGFQVF | 5.07 | 2 of 3 |
| EGDSLRYYYAN | GKRQRPS | SSRDSSGFQVF | 3.17 | 2 of 3 |
| EGDSLFYYRYN | GKNNRPS | SSRDSSGFQVF | not detected | 0 of 3 |
| EGDSLRYYYAN | GKNSRPS | SSRDSSGAMVF | 3.51 | 3 of 3 |
| EGDSLRYYYAN | GINNRPS | CSRDSSGFQVF | 3.14 | 2 of 3 |
| EGDSLRYYYAN | GKNNRPK | SKRDSQGFQVF | 4.10 | 2 of 3 |
| EGDSLRHYYAN | GKNPRPS | SSRDYSGFQVF | 3.75 | 3 of 3 |
| EGISLRYYYAN | GKENRPS | SSRDSSGFQVN | 3.18 | 3 of 3 |
| EGDSTRYYYAN | GKNNRPS | CSRDSSGFQVF | 3.53 | 3 of 3 |
| EGDVNRYYYAN | MKNNRPS | SSRDSSGFQVF | 3.96 | 2 of 3 |
| EGDSLRYYYAN | GKNQRLS | SSRDFSGFQVF | 2.66 | 3 of 3 |
| EGDVLRYYYAN | GKNNGPS | SRRDSSGFQVF | 3.77 | 2 of 3 |
| EGDALRYYYAT | GKNNRPS | SSRKSSGFQVF | 2.11 | 1 of 3 |
| EGDKLWYYYAN | GKNNRPS | TSRDSSGFQVF | 3.70 | 3 of 3 |
| EGDCLRLYYAN | GKNNIPS | SSRDSSGFQVF | 3.18 | 1 of 3 |

The remaining entries, values ahead:

| mean, log10 nM | seen in | CDR-L1 | CDR-L2 | CDR-L3 |
|---|---|---|---|---|
| 3.96 | 2 of 3 | EFDSLRRYYGN | GKNNRPS | SSRDSSGFQVF |
| 2.83 | 3 of 3 | EGDSLRYYYAN | GKNNRPS | SSRDSKGIQVF |
| 4.09 | 3 of 3 | EGDSLRYYDAN | RKNNRPS | SKRDSSGFQVF |
| not detected | 0 of 3 | EEDSLRYQYAN | GKNNRPS | LSRDSSGFQVF |
| 3.60 | 2 of 3 | ECDSLRYYYAN | GKNNRPM | SSRDSSGFQWF |
| 4.05 | 2 of 3 | EGDSLRYYYAK | GKNARPS | DSRDSSGFQVF |
| not detected | 0 of 3 | EGDSLRYYYAN | GKRNRPS | FSRDSSGFQIF |
| not detected | 0 of 3 | EGDSLRYYYAN | GKNNRTS | SPRTSSGFQVF |
| 2.09 | 3 of 3 | EGDSLRYNYAN | GKNHRPS | SSCDSSGFQVF |
| 2.90 | 3 of 3 | EGDSLCYYYAN | GKNNRPD | SSRDWSGFQVF |
| 2.89 | 2 of 3 | EGKSLRYYYAN | GKNNNPS | SSRDRSGFQVF |
| 2.43 | 3 of 3 | EGDSLRYYHAN | GKNNRPS | STRDSSGFQSF |
| 1.33 | 3 of 3 | EGDSLRYTYAN | GKNIRPS | SSRDSSGFQWF |
| 2.13 | 3 of 3 | EGDSLRYYYAN | GKNNRPD | SSIDSSGFQNF |
| 2.78 | 3 of 3 | EGDSLKYYYAN | GKNTRPS | SSRDSRGFQVF |
| 3.97 | 2 of 3 | EGDSLRYYYAD | GKNNRNS | FSRDSSGFQVF |
| not detected | 0 of 3 | EGDCLRYYYAN | GKNNRPS | SSRDSSKFQTF |
| 2.81 | 1 of 3 | EGGTLRYYYAN | GKNNRPS | SSRDSSGFEVF |
| 2.89 | 3 of 3 | EGDSLRYYYSN | GKDNRPS | SSRPSSGFQVF |
| 3.46 | 2 of 3 | EQDSLRYYYAN | GKNNRPS | STRDSSGFQVF |
| 3.82 | 3 of 3 | EGDSNRYYYAN | GKNNRPS | SGRDGSGFQVF |
| 2.21 | 3 of 3 | SGDSLTYYYAN | GKNGRPS | SSRDSSGFQVF |
| 3.49 | 3 of 3 | EGDSLRYYYAD | GKNNRPS | SSRTSSGFQVQ |
| 4.84 | 3 of 3 | EGDLLRYYYAN | AKNNRPS | SSRDSSGFQCF |
| 4.59 | 2 of 3 | EGDSFRYYYAN | GKNWRPS | SSRYSSGFQVF |
| 4.33 | 1 of 3 | EGDSLRYYYAK | GKNNRPS | SSVDSGGFQVF |
| 3.62 | 3 of 3 | EGDSLRFYYAN | GKGNRPS | SSRWSSGFQVF |
| 3.91 | 3 of 3 | FGDGLRYYYAN | GKNNCPS | SSRDSSGFQVF |
| 2.72 | 3 of 3 | GGDSLRYYYAN | GKNNRPS | VSVDSSGFQVF |
| 2.68 | 3 of 3 | NGDSLRYYYAN | GKNNRVH | SSRDSSGFQVF |
| 3.32 | 1 of 3 | ECDSLRYYYAN | GKNNRPS | SSRDSSLFVVF |
| 2.62 | 3 of 3 | EGDSLRYYYAN | GKNNRPS | IDRDSSGFPVF |
| 3.40 | 2 of 3 | EGDSLRYYYAH | GKNHRPS | SSRDASGFQVF |
| 1.54 | 3 of 3 | EGDSLRYYYAN | GANNRPS | SSRDSSGYQVF |
| 3.44 | 1 of 3 | EGDSLRYYYAN | GKNNRPS | SSNDQSGFQVF |
| 4.12 | 2 of 3 | EGYSLRWYYAN | GKNNRPS | SSRDSSGFQVK |
| 3.13 | 1 of 3 | EGDSLRYYYAN | GKNNRPS | CSRKSSGFQVF |
| 3.65 | 3 of 3 | ESDSLRYYYAN | GKNNRSS | SSRDSSGFQVF |
| 2.87 | 3 of 3 | EGDSLRYYYAN | GKQSRPS | SSRDSSGFQVC |
| 3.04 | 1 of 3 | EIDSLRYYYNN | GKINRPS | SSRDSSGFQVF |

The 8 strongest on average among those seen in every replicate, once more:

CDR-L1	CDR-L2	CDR-L3	mean, log10 nM	seen in
EGDSLRYTYAN	GKNIRPS	SSRDSSGFQWF	1.33	3 of 3
EGDSLRYYYAN	GANNRPS	SSRDSSGYQVF	1.54	3 of 3
EGDSLRYYYAN	GKANRPS	SSRDSSGAQVW	2.08	3 of 3
EGDSLRYNYAN	GKNHRPS	SSCDSSGFQVF	2.09	3 of 3
EGDSLRYYYAN	GKNNRPD	SSIDSSGFQNF	2.13	3 of 3
SGDSLTYYYAN	GKNGRPS	SSRDSSGFQVF	2.21	3 of 3
EGDSLRYYHAN	GKNNRPS	STRDSSGFQSF	2.43	3 of 3
EGDSLRYYYAN	GKNYRPS	SSRDVSGFNVF	2.46	3 of 3

As a blank, each scFv also met three strains without target: over library AAYL52, 28% of these pairings were detected, typically at 3.91 and seldom below 2.90.